How the values were obtained:
[1] = target: Rap guanine nucleotide exchange factor 4 (Homo sapiens, UniProt Q8WZA2); experiment: Antagonist activity at recombinant full length EPAC2 (unknown origin) assessed as inhibition of cAMP-mediated Rap1b-BODIPY GDP nucleotide exchange activity
[2] = target: T1, Rap guanine nucleotide exchange factor 3 (Homo sapiens) (UniProt O95398); experiment: Antagonist activity at recombinant full length EPAC1 (unknown origin) assessed as inhibition of cAMP-mediated Rap1b-BODIPY GDP nucleotide exchange activity
T1 sequence (whole entry): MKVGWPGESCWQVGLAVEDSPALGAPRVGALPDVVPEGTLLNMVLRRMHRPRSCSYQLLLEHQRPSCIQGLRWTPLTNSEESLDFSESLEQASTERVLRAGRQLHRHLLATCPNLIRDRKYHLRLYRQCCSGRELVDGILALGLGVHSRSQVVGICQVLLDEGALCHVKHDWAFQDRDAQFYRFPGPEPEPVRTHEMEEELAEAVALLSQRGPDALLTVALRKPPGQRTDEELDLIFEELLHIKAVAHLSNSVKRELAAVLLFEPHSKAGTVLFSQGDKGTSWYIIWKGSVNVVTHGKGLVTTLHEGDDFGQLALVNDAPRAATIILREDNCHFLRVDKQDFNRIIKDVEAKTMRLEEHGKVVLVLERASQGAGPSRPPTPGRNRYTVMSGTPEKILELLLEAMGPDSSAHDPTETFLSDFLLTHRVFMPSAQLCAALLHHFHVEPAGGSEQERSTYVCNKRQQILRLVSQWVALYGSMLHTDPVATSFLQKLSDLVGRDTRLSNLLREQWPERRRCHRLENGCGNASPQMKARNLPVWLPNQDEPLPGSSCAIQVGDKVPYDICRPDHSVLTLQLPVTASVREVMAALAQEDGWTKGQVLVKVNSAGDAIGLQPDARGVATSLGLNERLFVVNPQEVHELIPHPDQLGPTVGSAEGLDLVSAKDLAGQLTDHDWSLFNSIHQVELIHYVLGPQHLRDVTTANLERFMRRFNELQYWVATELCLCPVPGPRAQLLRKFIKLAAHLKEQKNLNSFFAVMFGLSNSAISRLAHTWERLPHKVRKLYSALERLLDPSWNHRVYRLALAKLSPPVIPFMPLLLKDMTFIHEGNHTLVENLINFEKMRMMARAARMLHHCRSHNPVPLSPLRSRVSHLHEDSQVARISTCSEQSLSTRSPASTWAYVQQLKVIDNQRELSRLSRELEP
How it was run: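 Guanine nucleotide exchange on Rap1b loaded with BODIPY-GDP (Rap1b-bGDP), catalysed by EPAC1 in the presence of 20 μM cAMP. Inhibitor is tested over a dose range. GEF activity is expressed as a normalized reaction rate constant, and IC50 is taken from the dose-response curves. Values are mean ± SE, n = 3.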

Chains of the proteins cited; added tags and fusions are not shown. Lines headed by an entry give the natural chain unless they say otherwise; changes in a name come on top.
UniProt Q8WZA2: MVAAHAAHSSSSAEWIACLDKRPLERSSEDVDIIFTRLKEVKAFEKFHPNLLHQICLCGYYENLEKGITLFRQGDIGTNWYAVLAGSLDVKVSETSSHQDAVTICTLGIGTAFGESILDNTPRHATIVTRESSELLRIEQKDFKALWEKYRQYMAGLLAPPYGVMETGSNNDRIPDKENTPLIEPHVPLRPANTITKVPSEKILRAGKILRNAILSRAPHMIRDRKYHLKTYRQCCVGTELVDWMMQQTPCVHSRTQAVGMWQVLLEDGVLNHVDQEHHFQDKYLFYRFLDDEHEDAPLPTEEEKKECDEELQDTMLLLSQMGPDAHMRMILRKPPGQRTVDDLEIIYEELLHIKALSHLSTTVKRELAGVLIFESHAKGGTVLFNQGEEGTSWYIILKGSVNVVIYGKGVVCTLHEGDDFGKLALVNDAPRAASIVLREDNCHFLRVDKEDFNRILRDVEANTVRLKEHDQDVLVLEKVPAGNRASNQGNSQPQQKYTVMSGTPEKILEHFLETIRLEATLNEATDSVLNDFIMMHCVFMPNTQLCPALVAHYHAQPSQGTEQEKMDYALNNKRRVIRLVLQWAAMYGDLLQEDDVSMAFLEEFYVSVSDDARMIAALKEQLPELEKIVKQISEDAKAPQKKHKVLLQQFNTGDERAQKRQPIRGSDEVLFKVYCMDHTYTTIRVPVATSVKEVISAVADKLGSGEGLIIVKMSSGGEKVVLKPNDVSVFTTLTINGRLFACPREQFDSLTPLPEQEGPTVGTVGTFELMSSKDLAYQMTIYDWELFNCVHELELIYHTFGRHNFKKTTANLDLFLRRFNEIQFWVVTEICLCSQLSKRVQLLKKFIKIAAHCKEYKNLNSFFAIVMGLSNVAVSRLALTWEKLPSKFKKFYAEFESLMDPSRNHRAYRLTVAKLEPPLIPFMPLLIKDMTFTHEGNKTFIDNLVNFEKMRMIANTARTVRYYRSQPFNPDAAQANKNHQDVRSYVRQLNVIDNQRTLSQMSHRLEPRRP

| SMILES | IC50 [1] [µM] | inhibition [1] | inhibition [2] |
| --- | --- | --- | --- |
| N#C/C(=N\Nc1cc(Cl)cc(Cl)c1)C(=O)c1ccc2c(c1)CCCC2 | 1.2 | Dose-dependent effect | Dose-dependent effect |
| N#C/C(=N\Nc1cc(Cl)cc(Cl)c1)C(=O)c1ccc2ccccc2c1 | 2.5 |  |  |
| CC(C)(C)c1ccc(C(=O)/C(C#N)=N/Nc2cc(F)cc(Cl)c2)cc1 | 3.4 |  |  |
| CC(C)(C)c1ccc(C(=O)/C(C#N)=N/Nc2cccc(Cl)c2)cc1 | 28.4 | Dose-dependent effect | Dose-dependent effect |
| CC(C)(C)c1ccc(C(=O)/C(C#N)=N/Nc2cc(Cl)cc(C(F)(F)F)c2)cc1 | 5.4 |  |  |
| CC(C)(C)c1ccc(C(=O)/C(C#N)=N/Nc2cc(Cl)cc(Cl)c2)cc1 | 2.5 |  |  |
| CC(C)(C)c1ccc(C(=O)/C(C#N)=N/Nc2cc(C(F)(F)F)cc(C(F)(F)F)c2)cc1 | 6.3 | Dose-dependent effect | Dose-dependent effect |
| CC(C)(C)c1ccc(C(=O)/C(C#N)=N/Nc2cc(F)c(F)c(F)c2)cc1 | 15.8 |  |  |
| CC(C)(C)c1ccc(C(=O)/C(C#N)=N/Nc2ccc(Cl)c(C(F)(F)F)c2)cc1 | 12.4 |  |  |

Source: ChEMBL document CHEMBL4177657, “Structure-activity relationships of 2-substituted phenyl-N-phenyl-2-oxoacetohydrazonoyl cyanides as novel antagonists of exchange proteins directly activated by cAMP (EPACs)” (Bioorg Med Chem Lett, 2017)
